The species entered for the assay is Bos taurus.
With `COc1ccc(C(C)c2ccc3c(ccn3C)c2)c(OC)c1OC` (centres undefined), the Ka is 3.1 ×10⁵ /M.

`C=C(c1cc(OC)c(OC)c(OC)c1)c1ccc2c(ccn2C)c1`: the Ka was determined as 3.8 ×10⁶ /M.

In turn, `COc1cc(C(=O)c2ccc3c(ccn3C)c2)cc(OC)c1OC` displayed a Ka of 2.16 ×10⁶ /M.

With `COc1cc(C(=O)c2ccc3c(c2)c(C(=O)O)cn3C)cc(OC)c1OC`, the Ka is below 1 ×10⁴ /M.

`C=C(c1ccc2c(ccn2C)c1)c1ccc(OC)c(OC)c1OC` had a Ka of 7.6 ×10⁶ /M.

The compound `COc1cc(C(=O)c2ccc3c(c2)c(C=O)cn3C)cc(OC)c1OC` showed a Ka of 3.1 ×10⁵ /M.

In the case of `C=C(c1cc(OC)c(OC)c(OC)c1)c1ccc2c(c1)c(CO)cn2C`, the Ka is below 1 ×10⁴ /M.

Consider `C=C(c1ccc2c(c1)c(CO)cn2C)c1ccc(OC)c(OC)c1OC`, for which the Ka was found to be 1 ×10⁶ /M.

The compound `C=C(c1cc(OC)c(OC)c(OC)c1)c1ccc2c(c1)c(C=NO)cn2C` yielded a Ka of 8.6 ×10⁶ /M.

The compound `COc1ccc(C(=O)c2ccc3c(c2)c(C=O)cn3C)c(OC)c1OC` yielded a Ka of 2.6 ×10⁵ /M.

`C=C(c1cc(OC)c(OC)c(OC)c1)c1ccc2c(c1)c(C=O)cn2C` showed a Ka of 3.6 ×10⁵ /M.

In turn, `C=C(c1cc(OC)c(OC)c(OC)c1)c1ccc2c(c1)c(C#N)cn2C` yielded a Ka of 1.8 ×10⁷ /M.

Compound `COc1cc(C(=CC=O)c2ccc3c(c2)c(C=O)cn3C)cc(OC)c1OC` had a Ka of 2.4 ×10⁵ /M.

In turn, `C=C(c1ccc2c(c1)c(C=O)cn2C)c1ccc(OC)c(OC)c1OC` yielded a Ka below 1 ×10⁴ /M.

The compound `C=C(c1ccc2c(c1)c(C=NO)cn2C)c1ccc(OC)c(OC)c1OC` gave a Ka of 5.4 ×10⁵ /M.

In the case of `COc1ccc(C(=CC=O)c2ccc3c(c2)c(C=O)cn3C)c(OC)c1OC`, the Ka came to 5.3 ×10⁴ /M.

`C=C(c1ccc2c(c1)c(C#N)cn2C)c1ccc(OC)c(OC)c1OC` returned a Ka of 4 ×10⁶ /M.

`C=C(c1cc(OC)c(OC)c(OC)c1)c1ccc2c(c1)c(C=NN)cn2C` registered a Ka of 5.4 ×10⁴ /M.

As for `COc1ccc(C(C)c2ccc3c(c2)c(C=NN)cn3C)c(OC)c1OC` (centres undefined), the Ka was below 1 ×10⁴ /M.

The values are drawn from ChEMBL document CHEMBL2321691 (J Med Chem, 2013).
